Results: article PMC10589655 (Proceedings of the National Academy of Sciences of the …, 2023)

Biological target: T1, R7 (Peptoclostridium litorale, UniProt A0A069RI07)
T1 sequence (A0A069RI07 38-318 limits assumed): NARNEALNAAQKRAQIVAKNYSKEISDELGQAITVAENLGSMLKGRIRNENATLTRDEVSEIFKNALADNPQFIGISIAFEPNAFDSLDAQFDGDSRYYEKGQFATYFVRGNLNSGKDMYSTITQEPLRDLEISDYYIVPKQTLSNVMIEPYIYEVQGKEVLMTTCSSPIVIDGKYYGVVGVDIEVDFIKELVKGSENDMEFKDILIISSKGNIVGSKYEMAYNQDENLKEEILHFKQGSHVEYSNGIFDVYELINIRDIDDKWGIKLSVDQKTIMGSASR
Experiment: ITC
Format: binding

CN(C)C [Trimethylamine]
Kd: 12.6 ± 1 µM
